These results are taken from patent publication US20060094649A1, “Hla-a1,-a2,-a3,-a24,-b7, and-b44 tumor associated antigen peptides and compositions” (priority 2002, published 2006).

For the experiment, the system named is HLA-B44 supertype molecules. Put plainly: HLA-B44 supertype cross-binding. Set-up: species or system human. The settings on record: number of the six B44 supertype alleles bound.

`CC(C)C[C@H](NC(=O)CNC(=O)[C@H](CC(C)C)NC(=O)[C@H](Cc1ccc(O)cc1)NC(=O)[C@H](CCC(=O)O)NC(=O)[C@@H]1CCCN1C(=O)[C@H](CC(N)=O)NC(=O)[C@H](CCC(=O)O)NC(=O)[C@H](C)N)C(=O)O` [compound 439] displayed a Degeneracy of 6.
The figure for `CC[C@H](C)[C@H](NC(=O)[C@H](CCC(=O)O)NC(=O)[C@@H](NC(=O)[C@H](CC(C)C)NC(=O)[C@H](CO)NC(=O)[C@H](CCCNC(=N)N)NC(=O)[C@H](CC(C)C)NC(=O)[C@H](CCC(N)=O)NC(=O)[C@H](CC(C)C)NC(=O)[C@H](CCC(=O)O)NC(=O)[C@@H](N)CCCNC(=N)N)[C@@H](C)O)C(=O)O` [compound 440] is 6; for `CC[C@H](C)[C@H](NC(=O)[C@H](CCCCN)NC(=O)[C@H](CCCCN)NC(=O)[C@H](CS)NC(=O)CNC(=O)[C@H](C)NC(=O)[C@H](Cc1ccccc1)NC(=O)[C@H](CCC(=O)O)NC(=O)[C@@H](N)CCC(N)=O)C(=O)N[C@@H](Cc1ccccc1)C(=O)NCC(=O)O` [compound 441] it is 6.
Consider `CC(C)C[C@H](NC(=O)[C@@H]1CCCN1C(=O)[C@H](CO)NC(=O)[C@H](C)NC(=O)[C@@H]1CCCN1C(=O)CNC(=O)[C@H](CC(C)C)NC(=O)[C@H](CC(=O)O)NC(=O)[C@H](CCC(=O)O)NC(=O)[C@@H](N)CC(N)=O)C(=O)O` [compound 444], for which the Degeneracy is reported as 6.
In the case of `CC(C)C[C@H](NC(=O)[C@@H]1CCCN1C(=O)[C@H](CO)NC(=O)[C@H](CCCNC(=N)N)NC(=O)[C@@H]1CCCN1C(=O)[C@H](C)NC(=O)[C@H](CCC(=O)O)NC(=O)[C@H](CCC(=O)O)NC(=O)[C@H](CCC(=O)O)NC(=O)[C@@H](N)CO)C(=O)O` [compound 445], the Degeneracy was 6.
Regarding `CC(C)C[C@H](NC(=O)[C@@H]1CCCN1C(=O)[C@H](C)NC(=O)[C@@H](NC(=O)[C@H](Cc1ccc(O)cc1)NC(=O)CNC(=O)[C@H](CC(=O)O)NC(=O)[C@@H](NC(=O)[C@H](CCC(=O)O)NC(=O)[C@@H](N)CO)[C@@H](C)O)C(C)C)C(=O)O` [compound 446], the Degeneracy is listed as 6.
`CC(C)C[C@H](NC(=O)[C@H](CCC(=O)O)NC(=O)[C@@H](N)CC(C)C)C(=O)N[C@H](C(=O)N[C@@H](Cc1ccc(O)cc1)C(=O)N[C@@H](CC(C)C)C(=O)N1CCC[C@H]1C(=O)N[C@H](C(=O)N[C@@H](CC(N)=O)C(=O)N[C@@H](C)C(=O)O)[C@@H](C)O)[C@@H](C)O` [compound 447] showed a Degeneracy of 5.
The figure for `CC(C)C[C@H](NC(=O)[C@H](C)NC(=O)[C@H](Cc1ccc(O)cc1)NC(=O)[C@H](CC(N)=O)NC(=O)[C@H](CC(=O)O)NC(=O)[C@H](CCC(=O)O)NC(=O)[C@@H](N)Cc1ccccc1)C(=O)N[C@@H](C)C(=O)N[C@H](C(=O)O)C(C)C` [compound 449] is 5; for `CC(C)C[C@H](NC(=O)[C@H](CCC(N)=O)NC(=O)[C@H](CC(C)C)NC(=O)[C@H](CCC(=O)O)NC(=O)[C@@H](N)CCCNC(=N)N)C(=O)N[C@@H](CCCNC(=N)N)C(=O)N[C@@H](CO)C(=O)N[C@@H](CC(C)C)C(=O)N[C@H](C(=O)O)[C@@H](C)O` [compound 450] it is 5.
In the case of `CSCC[C@H](N)C(=O)N[C@@H](CCC(=O)O)C(=O)N[C@@H](Cc1c[nH]cn1)C(=O)N[C@@H](CC(C)C)C(=O)N[C@@H](CCCNC(=N)N)C(=O)N[C@@H](CCC(=O)O)C(=O)N[C@H](C(=O)N[C@@H](CCCNC(=N)N)C(=O)N[C@@H](C)C(=O)O)C(C)C` [compound 451] it was 5.
In the case of `CSCC[C@H](N)C(=O)N[C@@H](CCC(=O)O)C(=O)N[C@@H](Cc1c[nH]cn1)C(=O)N[C@@H](CC(C)C)C(=O)N[C@@H](CCCNC(=N)N)C(=O)N[C@@H](CCC(=O)O)C(=O)N[C@H](C(=O)N[C@@H](CCCNC(=N)N)C(=O)N[C@@H](C)C(=O)N[C@H](C(=O)O)C(C)C)C(C)C` [compound 452], the Degeneracy is given as 5.
The figure for `CSCC[C@H](N)C(=O)N[C@@H](CCC(=O)O)C(=O)N[C@@H](Cc1c[nH]cn1)C(=O)N[C@@H](CC(C)C)C(=O)N[C@@H](CCCNC(=N)N)C(=O)N[C@@H](CCC(=O)O)C(=O)N[C@H](C(=O)N[C@@H](CCCNC(=N)N)C(=O)N[C@@H](C)C(=O)N[C@H](C(=O)N[C@H](C(=O)N[C@@H](CO)C(=O)N[C@@H](C)C(=O)O)[C@@H](C)O)C(C)C)C(C)C` [compound 453] is 5; for `CC[C@H](C)[C@H](NC(=O)[C@H](CCCCN)NC(=O)[C@H](CCCCN)NC(=O)[C@H](CS)NC(=O)CNC(=O)[C@H](C)NC(=O)[C@H](Cc1ccccc1)NC(=O)[C@H](CCC(=O)O)NC(=O)[C@@H](N)CCC(N)=O)C(=O)N[C@@H](Cc1ccccc1)C(=O)O` [compound 454] it is 5.
`CC[C@H](C)[C@H](NC(=O)[C@H](Cc1ccc(O)cc1)NC(=O)[C@H](CC(C)C)NC(=O)[C@H](Cc1ccc(O)cc1)NC(=O)CNC(=O)[C@@H](NC(=O)[C@@H](NC(=O)[C@H](CCC(=O)O)NC(=O)[C@@H](N)CCC(=O)O)[C@@H](C)CC)[C@@H](C)O)C(=O)N[C@@H](CO)C(=O)N[C@@H](C)C(=O)O` [compound 455]: the Degeneracy was determined as 5.
Compound `CC(C)C[C@H](NC(=O)[C@H](C)NC(=O)[C@H](CC(C)C)NC(=O)CNC(=O)[C@H](CO)NC(=O)CNC(=O)[C@H](CC(C)C)NC(=O)[C@H](CCC(=O)O)NC(=O)[C@@H](N)CCCNC(=N)N)C(=O)O` [compound 456] registered a Degeneracy of 5.
`CC[C@H](C)[C@H](NC(=O)[C@H](CC(C)C)NC(=O)[C@H](C)NC(=O)[C@H](CC(C)C)NC(=O)CNC(=O)[C@H](CO)NC(=O)CNC(=O)[C@H](CC(C)C)NC(=O)[C@H](CCC(=O)O)NC(=O)[C@@H](N)CCCNC(=N)N)C(=O)O` [compound 457] returned a Degeneracy of 5.
In turn, `CC(C)C[C@H](NC(=O)[C@H](CCC(N)=O)NC(=O)[C@H](Cc1c[nH]cn1)NC(=O)[C@H](CS)NC(=O)[C@H](C)NC(=O)[C@H](CC(C)C)NC(=O)CNC(=O)[C@H](CCC(=O)O)NC(=O)CN)C(=O)O` [compound 458] had a Degeneracy of 5.
As for `CC(C)C[C@H](NC(=O)[C@H](CS)NC(=O)[C@H](Cc1c[nH]cn1)NC(=O)[C@H](CCCNC(=N)N)NC(=O)[C@H](C)NC(=O)[C@H](CC(N)=O)NC(=O)[C@@H](NC(=O)[C@H](Cc1ccc(O)cc1)NC(=O)[C@H](CCC(=O)O)NC(=O)[C@@H](N)CCCNC(=N)N)C(C)C)C(=O)O` [compound 459], the Degeneracy worked out at 5.
For `CC[C@H](C)[C@H](NC(=O)[C@@H]1CCCN1C(=O)[C@H](CS)NC(=O)[C@@H]1CCCN1C(=O)[C@H](CCC(N)=O)NC(=O)[C@H](CS)NC(=O)[C@H](C)NC(=O)CNC(=O)[C@H](CCC(=O)O)NC(=O)[C@@H](N)CCC(=O)O)C(=O)O` [compound 460], the Degeneracy is 5.
The figure for `CC(C)C[C@H](NC(=O)[C@@H]1CCCN1C(=O)[C@H](CO)NC(=O)[C@H](C)NC(=O)[C@H](CCCNC(=N)N)NC(=O)[C@H](CCC(N)=O)NC(=O)[C@H](CCC(=O)O)NC(=O)[C@H](C)N)C(=O)N[C@H](C(=O)O)[C@@H](C)O` [compound 461] is 5; for `CC(C)C[C@H](NC(=O)[C@@H]1CCCN1C(=O)[C@H](CCC(=O)O)NC(=O)[C@@H](NC(=O)[C@H](CC(C)C)NC(=O)[C@H](CCC(=O)O)NC(=O)[C@@H](NC(=O)[C@H](CCC(=O)O)NC(=O)[C@@H](N)CCC(N)=O)[C@@H](C)O)C(C)C)C(=O)O` [compound 462] it is 5.
In the case of `CC(C)C[C@H](NC(=O)[C@H](CCC(=O)O)NC(=O)[C@@H](NC(=O)[C@H](CCC(=O)O)NC(=O)[C@@H](N)CCC(N)=O)[C@@H](C)O)C(=O)N[C@H](C(=O)N[C@@H](CCC(=O)O)C(=O)N1CCC[C@H]1C(=O)N[C@@H](CC(C)C)C(=O)N[C@H](C(=O)O)[C@@H](C)O)C(C)C` [compound 463], the Degeneracy is listed as 5.
Consider `CC[C@H](C)[C@H](NC(=O)[C@H](C)NC(=O)[C@@H](NC(=O)[C@@H]1CCCN1C(=O)[C@@H](NC(=O)[C@H](CCCCN)NC(=O)[C@@H](NC(=O)[C@H](CC(N)=O)NC(=O)[C@H](CCC(=O)O)NC(=O)CN)C(C)C)[C@@H](C)CC)C(C)C)C(=O)O` [compound 464], for which the Degeneracy is 5.
As to `CSCC[C@H](NC(=O)[C@H](CCCNC(=N)N)NC(=O)[C@H](CO)NC(=O)[C@H](Cc1ccccc1)NC(=O)[C@H](CCC(=O)O)NC(=O)[C@H](CO)NC(=O)[C@@H](NC(=O)[C@H](CC(C)C)NC(=O)[C@H](CCC(=O)O)NC(=O)[C@@H](N)CCCNC(=N)N)C(C)C)C(=O)O` [compound 465], the Degeneracy amounted to 5.
Compound `CSCC[C@H](NC(=O)[C@H](CCCNC(=N)N)NC(=O)[C@H](CO)NC(=O)[C@H](Cc1ccccc1)NC(=O)[C@H](CCC(=O)O)NC(=O)[C@H](CO)NC(=O)[C@@H](NC(=O)[C@H](CC(C)C)NC(=O)[C@H](CCC(=O)O)NC(=O)[C@@H](N)CCCNC(=N)N)C(C)C)C(=O)N[C@@H](C)C(=O)O` [compound 466] displayed a Degeneracy of 5.
As for `CC(C)C[C@H](NC(=O)[C@@H]1CCCN1C(=O)[C@@H](NC(=O)[C@@H](NC(=O)[C@@H]1CCCN1C(=O)[C@H](CC(=O)O)NC(=O)[C@H](CCC(=O)O)NC(=O)[C@@H](N)CO)[C@@H](C)O)C(C)C)C(=O)O` [compound 468], the Degeneracy amounted to 5.
`CC(C)C[C@H](NC(=O)[C@@H]1CCCN1C(=O)[C@H](C)NC(=O)[C@@H](NC(=O)[C@H](Cc1ccc(O)cc1)NC(=O)CNC(=O)[C@H](CC(=O)O)NC(=O)[C@@H](NC(=O)[C@H](CCC(=O)O)NC(=O)[C@@H](N)CO)[C@@H](C)O)C(C)C)C(=O)N[C@H](C(=O)O)[C@@H](C)O` [compound 469] gave a Degeneracy of 5.
For `CC(C)C[C@H](NC(=O)CNC(=O)[C@H](CC(C)C)NC(=O)[C@H](Cc1ccc(O)cc1)NC(=O)[C@H](CCC(=O)O)NC(=O)[C@@H]1CCCN1C(=O)[C@H](CC(N)=O)NC(=O)[C@H](CCC(=O)O)NC(=O)[C@H](C)N)C(=O)N[C@@H](CC(=O)O)C(=O)N[C@H](C(=O)O)C(C)C` [compound 470], the Degeneracy was 5.
Compound `CSCC[C@H](N)C(=O)N[C@@H](CCC(=O)O)C(=O)N[C@@H](CC(C)C)C(=O)N[C@@H](C)C(=O)N[C@@H](C)C(=O)N[C@@H](CC(C)C)C(=O)N[C@@H](CS)C(=O)N[C@@H](CCCNC(=N)N)C(=O)N[C@@H](Cc1c[nH]c2ccccc12)C(=O)O` [compound 471] registered a Degeneracy of 4.
